System: O=C(O)O
Assay: cells, lysate or membranes
Conditions: pH 8, 50 mM NaCl, 24 °C, labelled compound, corrected for respiratory Ci

Substance: SbtA7001 (SbtA1) (Cyanobium sp. PCC 7001)
- Km: 189 µM

Source: article PMC4275256 (PLoS ONE, 2014)
